Source: PubChem BioAssay AID2650 (Broad Institute, 2010)
The entries are a selection whose mix differs from that of the whole data set. Some salts and complexes are drawn in separate pieces, as the source files them; their charges need not balance. The source made the active and inactive calls.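 Rule for the calls: active = more than half of replicates show inhibition above 20%; inconclusive = some but at most half of replicates above 20% inhibition; inactive = no replicate shows inhibition above 20%.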

Protein sequences, listed by entry. Tags and fused reporters are not part of them.
UniProt P49840, whole entry: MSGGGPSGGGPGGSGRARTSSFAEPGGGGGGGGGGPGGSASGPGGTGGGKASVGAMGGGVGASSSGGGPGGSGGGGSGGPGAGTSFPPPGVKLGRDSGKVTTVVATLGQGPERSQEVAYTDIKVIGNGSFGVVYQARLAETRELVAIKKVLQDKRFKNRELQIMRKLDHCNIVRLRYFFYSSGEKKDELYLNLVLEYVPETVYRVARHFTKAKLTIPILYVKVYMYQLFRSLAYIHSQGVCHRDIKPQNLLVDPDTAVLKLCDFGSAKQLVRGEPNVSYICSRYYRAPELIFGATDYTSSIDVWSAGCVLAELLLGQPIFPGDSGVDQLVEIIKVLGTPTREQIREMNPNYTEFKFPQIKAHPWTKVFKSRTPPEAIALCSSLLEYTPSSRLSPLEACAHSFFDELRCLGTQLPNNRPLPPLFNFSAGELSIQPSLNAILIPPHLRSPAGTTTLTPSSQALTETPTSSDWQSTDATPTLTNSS

Biological target: Glycogen synthase kinase-3 alpha (Homo sapiens) (UniProt P49840)
Assay: blockers of GSK3A enzyme activity – biochemical, luminescence, cell-free homogeneous, HTS, primary screen (AID 2650);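 note: GST-tagged GSK-3 alpha with peptide substrate and 25 µM ATP; 0% = DMSO neutral wells and 100% = GW8510 positive control wells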
Settings: GSK-3 alpha kinase, ADP-Glo luminescence, 60 min; at 10 µM; stronger effect = higher value

**Q.** Which inhibition does the source give for `CN(C)C(=O)c1c([N+](=O)[O-])cc([N+](=O)[O-])cc1[N+](=O)[O-]` here?
**A.** inactive: -0.202%

**Q.** With `COc1ccccc1OP(C)(=O)Nc1ccccc1Br` (stereo not given) as the molecule, how does the inhibition read?
**A.** inactive: -6.8%

**Q.** For `CC(C)(C)c1ccc(OP(C)(=O)O)cc1`, which inhibition is on record?
**A.** inactive: -2.24%

**Q.** `CP(=O)(Nc1ccc(Cl)cc1)Oc1ccc(F)cc1` (stereo not given) was tested. Which inhibition did it give?
**A.** inactive: -0.114%

**Q.** With `O=C(OCCCN1CCCC1)C(O)(c1ccccc1)C1CCCCC1` (stereo not given) as the molecule, how does the inhibition read?
**A.** inactive: -2.16%

**Q.** How did the inhibition turn out when `COc1ccccc1OP(C)(=O)Nc1c(C)n(C)n(-c2ccccc2)c1=O` (stereo not given) was run?
**A.** inactive: -0.876%

**Q.** Which inhibition does the source give for `CCc1ccc(OP(C)(=O)Nc2cccnc2)cc1` (stereo not given) here?
**A.** inactive: -3.11%

**Q.** `CP(=O)(Oc1ccccc1)N1CCOC1=O` (stereo not given) was tested. Which inhibition did it give?
**A.** inactive: -2.33%

**Q.** How did the inhibition turn out when `CCN(CC)CC(O)COC(=O)C(O)(c1ccccc1)C1CCCCC1` (stereo not given) was run?
**A.** inactive: -2.78%

**Q.** `CCOC(=O)c1ccc(NP(C)(=O)Oc2ccc(Cl)cc2)cc1` (stereo not given) was tested. Which inhibition did it give?
**A.** inactive: -0.123%

**Q.** With `CP(=O)(OC12CC3CC(CC(C3)C1)C2)OC12CC3CC(CC(C3)C1)C2` as the molecule, how does the inhibition read?
**A.** inactive: -2.09%

**Q.** For `Nc1ccc2c(ccc3cccnc32)n1.O=[N+]([O-])c1cc([N+](=O)[O-])c(O)c([N+](=O)[O-])c1`, which inhibition is on record?
**A.** inactive: -0.482%

**Q.** For `CP(=O)(Nc1ccc(Cl)cc1Cl)Oc1ccccc1` (stereo not given), which inhibition is on record?
**A.** inactive: -1.42%

**Q.** For `CP(=O)(OCCOc1ccccc1)OCCOc1ccccc1`, which inhibition is on record?
**A.** inactive: -3.25%

**Q.** How did the inhibition turn out when `COc1ccccc1OP(C)(=O)Nc1ccc(C)c(C)c1` (stereo not given) was run?
**A.** inactive: -1.17%

**Q.** How did the inhibition turn out when `COc1ccc(OP(C)(=O)Nc2ccccc2Br)cc1` (stereo not given) was run?
**A.** inactive: -2.15%

**Q.** How did the inhibition turn out when `Cc1cc(C)cc(OP(C)(=O)Nc2cccc(C(F)(F)F)c2)c1` (stereo not given) was run?
**A.** inactive: 9.83%

**Q.** How did the inhibition turn out when `COc1ccccc1OP(C)(=O)Nc1ccc(C)cc1C` (stereo not given) was run?
**A.** inactive: 0.654%

**Q.** `CP(=O)(Nc1ccccn1)Oc1ccccc1` (stereo not given) was tested. Which inhibition did it give?
**A.** inactive: -0.475%

**Q.** Which inhibition does the source give for `CCc1ccc(OP(C)(=O)O)cc1` here?
**A.** inactive: -1.42%

**Q.** How did the inhibition turn out when `Cc1c(NP(C)(=O)Oc2ccc(C(C)C)cc2)c(=O)n(-c2ccccc2)n1C` (stereo not given) was run?
**A.** inactive: -0.248%

**Q.** For `O=[N+]([O-])c1cc([N+](=O)[O-])c(Nc2ccccn2)c([N+](=O)[O-])c1`, which inhibition is on record?
**A.** inactive: 0.64%

**Q.** For `COc1ccc(OP(C)(=O)Nc2ccccn2)cc1` (stereo not given), which inhibition is on record?
**A.** inactive: -5.85%

**Q.** `CN(C)CCOC(=O)C(O)(c1ccccc1)C1CCCC1` (stereo not given) was tested. Which inhibition did it give?
**A.** inactive: -2.95%

**Q.** For `COc1ccccc1OP(C)(=O)Nc1ccc(Br)cc1` (stereo not given), which inhibition is on record?
**A.** inactive: -1.2%

**Q.** `COc1ccc2c(c1O)-c1c(O)c(OC)cc3c1[C@H](C2)[N+](C)(C)CC3.O=[N+]([O-])c1cc([N+](=O)[O-])c([O-])c([N+](=O)[O-])c1[O-]` was tested. Which inhibition did it give?
**A.** inactive: -2.87%

**Q.** With `O=C(OC1CN2CCC1CC2)c1ccc([N+](=O)[O-])cc1` (stereo not given) as the molecule, how does the inhibition read?
**A.** inactive: -2.13%

**Q.** Which inhibition does the source give for `O=C(OCCN1CCN(CCOCc2ccccc2)CC1)C(O)(c1ccccc1)c1ccccc1` here?
**A.** inactive: -1.28%

**Q.** Which inhibition does the source give for `CP(=O)(Nc1ccccc1F)Oc1ccccc1` (stereo not given) here?
**A.** inactive: 0.034%

**Q.** For `CC(C)c1ccc(OP(C)(=O)Nc2ccc(SC(F)(F)F)cc2)cc1` (stereo not given), which inhibition is on record?
**A.** inactive: -0.367%

**Q.** How did the inhibition turn out when `CP(=O)(Nc1ccccc1)Oc1ccc(F)cc1` (stereo not given) was run?
**A.** inactive: -0.475%

**Q.** Which inhibition does the source give for `CCCCCOc1ccc(NP(C)(=O)Oc2ccc(Cl)cc2Cl)cc1` (stereo not given) here?
**A.** inactive: -2.16%

**Q.** `O=[N+]([O-])c1cc([N+](=O)[O-])c(OC2CCCCC2O)c([N+](=O)[O-])c1` (stereo not given) was tested. Which inhibition did it give?
**A.** inactive: 6.41%

**Q.** With `CCN(CC)CCCOC(=O)C(O)(c1ccccc1)C1CCCCC1` (stereo not given) as the molecule, how does the inhibition read?
**A.** inactive: -1.13%

**Q.** For `CCOC(=O)c1ccc(NP(C)(=O)Oc2ccc(F)cc2)cc1` (stereo not given), which inhibition is on record?
**A.** inactive: -3.9%

**Q.** For `COc1ccc(OP(C)(=O)Nc2ccc(SC(F)(F)F)cc2)cc1` (stereo not given), which inhibition is on record?
**A.** inactive: -0.945%

**Q.** How did the inhibition turn out when `O=[N+]([O-])c1ccc(OP2(=O)COCCO2)cc1` (stereo not given) was run?
**A.** inactive: -2.73%

**Q.** `O=[N+]([O-])c1cc([N+](=O)[O-])c(NCC2CCS(=O)(=O)C2)c([N+](=O)[O-])c1` (stereo not given) was tested. Which inhibition did it give?
**A.** inactive: 3.15%

**Q.** How did the inhibition turn out when `CN(C)CCOC(=O)C(O)(c1ccccc1)C1CCCCC1` (stereo not given) was run?
**A.** inactive: 0.356%

**Q.** For `COc1ccc(NP(C)(=O)Oc2ccccc2OC)cc1` (stereo not given), which inhibition is on record?
**A.** inactive: -1.29%

**Q.** `COc1ccc(OP(C)(=O)Nc2cccc(Br)c2)cc1` (stereo not given) was tested. Which inhibition did it give?
**A.** inactive: -2.88%

**Q.** Which inhibition does the source give for `Cc1ccccc1NP(C)(=O)Nc1ccccc1C` here?
**A.** inactive: 1.74%

**Q.** How did the inhibition turn out when `CP(=O)(Nc1ccc2c(c1)OCCO2)Oc1ccccc1` (stereo not given) was run?
**A.** inactive: -2.56%

**Q.** `CCOP(C)(=S)SCC(=O)NC(C)(CC)C(=O)O` (stereo not given) was tested. Which inhibition did it give?
**A.** inactive: -1.54%

**Q.** With `CP(=O)(Nc1ccc(SC(F)(F)F)cc1)Oc1ccc(F)cc1` (stereo not given) as the molecule, how does the inhibition read?
**A.** inactive: -6.01%

**Q.** With `Cc1nc2ccc3ccccc3c2s1.O=[N+]([O-])c1cc([N+](=O)[O-])c(O)c([N+](=O)[O-])c1` as the molecule, how does the inhibition read?
**A.** inactive: -0.612%

**Q.** How did the inhibition turn out when `O=[N+]([O-])c1cc([N+](=O)[O-])c(-c2cnn(-c3ccccc3)c2)c([N+](=O)[O-])c1` was run?
**A.** inactive: -1.62%

**Q.** For `O=[N+]([O-])c1cc([N+](=O)[O-])c(-n2nnc3ccccc32)c([N+](=O)[O-])c1`, which inhibition is on record?
**A.** inactive: -3%

**Q.** Which inhibition does the source give for `CCCOc1ccc(NP(C)(=O)Oc2ccc(Cl)cc2)cc1` (stereo not given) here?
**A.** inactive: -0.421%

**Q.** How did the inhibition turn out when `CP(=O)(Nc1ccc(SC(F)(F)F)cc1)Oc1ccccc1` (stereo not given) was run?
**A.** inactive: -2.32%

**Q.** `COc1ccccc1OP(C)(=O)Nc1c(C)cccc1C` (stereo not given) was tested. Which inhibition did it give?
**A.** inactive: -1.48%

**Q.** Which inhibition does the source give for `CN1CCCCC1COC(=O)C1(O)c2ccccc2CCc2ccccc21` (stereo not given) here?
**A.** inactive: 1.47%

**Q.** `CCOC(=O)C(CC)C1=NC(C)(C)Cc2ccccc21.O=[N+]([O-])c1cc([N+](=O)[O-])c(O)c([N+](=O)[O-])c1` (stereo not given) was tested. Which inhibition did it give?
**A.** inactive: -3.83%

**Q.** How did the inhibition turn out when `CC1=C2N=C(C=C3N=C(C(C)=C4[N-][C@@](C)([C@@H]5N=C1[C@](C)(CCC(=O)NC[C@@H](C)OP(=O)([O-])O[C@H]1[C@@H](O)[C@@H](n6cnc7cc(C)c(C)cc76)O[C@@H]1CO)[C@H]5CC(N)=O)[C@@](C)(CC(N)=O)[C@@H]4CCC(N)=O)[C@@](C)(CC(N)=O)[C@@H]3CCC(N)=O)C(C)(C)[C@@H]2CCC(N)=O.[C-]#N.[Co+3]` was run?
**A.** inactive: -3.9%

**Q.** How did the inhibition turn out when `O=[N+]([O-])c1cc([N+](=O)[O-])c(Nc2nnnn2CCO)c([N+](=O)[O-])c1` was run?
**A.** inactive: 1.02%
